The target in the assay is Cholinesterase (Equus caballus, UniProt P81908).

By UniProt entry, the sequences of proteins in these tests, tags left out.
UniProt P81908, whole entry: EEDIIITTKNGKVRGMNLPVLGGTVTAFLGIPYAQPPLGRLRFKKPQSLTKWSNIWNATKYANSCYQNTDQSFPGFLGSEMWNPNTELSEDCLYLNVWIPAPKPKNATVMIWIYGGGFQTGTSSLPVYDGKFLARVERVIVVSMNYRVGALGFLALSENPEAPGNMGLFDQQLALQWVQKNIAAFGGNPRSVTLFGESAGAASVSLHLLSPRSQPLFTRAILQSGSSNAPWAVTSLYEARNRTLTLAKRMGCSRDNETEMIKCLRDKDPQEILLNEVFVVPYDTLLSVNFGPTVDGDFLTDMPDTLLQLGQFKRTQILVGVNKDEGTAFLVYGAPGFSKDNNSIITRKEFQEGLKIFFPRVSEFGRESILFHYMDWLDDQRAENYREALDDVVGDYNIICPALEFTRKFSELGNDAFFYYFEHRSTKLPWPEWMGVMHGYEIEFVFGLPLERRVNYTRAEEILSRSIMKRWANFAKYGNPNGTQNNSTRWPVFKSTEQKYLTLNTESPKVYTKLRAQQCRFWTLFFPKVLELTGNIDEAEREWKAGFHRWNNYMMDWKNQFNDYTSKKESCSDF

As a reminder, the IC50 is the concentration that gives 50% inhibition. A low value points to greater potency.

Each structure is given as a SMILES string.

Turning to `CNC(=O)Oc1ccc2c(c1)[C@]1(C)CCN(C)[C@@H]1N2C` [PHYSOSTIGMINE], the midpoint of inhibition, the IC50, lay at 14 nM.

These data come from ChEMBL document CHEMBL3286215, “Preparation, anticholinesterase activity and molecular docking of new lupane derivatives” (Bioorg Med Chem, 2014).
